Test results published in patent US20210130420A1, “RECOMBINANT BINDING PROTEINS TARGETING HER2 AND SERUM ALBUMIN, AND THEIR USES” (Molecular Partners AG, priority 2016, published 2021).

Legend:
Foxo3a protein [1] = experiment: Cellular levels of Foxo3a protein in NCI-N87 cells; type: cell-based; conditions: compared to an exposure to PBS only
Excerpt: (§1) Protein #21 was expressed and purified as described in Example 1. […] Cells were then subjected to a phospho-proteome mass-spectrometry analysis as described by Britton, D., et al. (Britton, D., Zen, Y., Quaglia, A., Selzer, S., Mitra, VI., Lössner, C., Jung, S., Bohm, G., Schmid, P., Prefot, P., Hoehle, C., Koncarevic, S., Gee, J., Nicholson, R., Ward, M., Castellano, L., Stebbing, J., Zucht, H. D., Sarker, D., Heaton, N., and Pike, I., 2014. PLOS One 9 (3), e90948). […] At other phosphorylation sites, phosphorylation is increased (772).
(§2) In this experiment, it was further observed that exposure of BT474 and NCI-N87 cells to Protein #21 increased the cellular levels of Foxo3a protein by 1.88 and 2.8-fold, respectively, when compared to an exposure to PBS only. […] It is known to the practitioner in the art, that Akt1 phosphorylates Foxo3a, resulting in the degradation of Foxo3a and promotion of cell survival. Inhibition of Act phosphorylation leads to stabilization of Foxo3a and thus increase in Foxo3a levels. At increased levels Foxo3a can translocate to the nucleus and induce apoptosis.

BT474 cells [2] = experiment: BT474 cell proliferation, BrdU-labeling; type: cell-based, human; conditions: single agent or on top of suboptimal Protein #21-His (2 nM) or Protein #21 (1 nM)
Experimental: Protein #21-His and Protein #23-His, were expressed and purified as described in Example 1. Effects of the recombinant binding proteins on BT474 cell proliferation were determined by measuring DNA synthesis using BrdU-labeling (BrdU, Cell Proliferation ELISA, Roche). Briefly, 10000 BT474 cells were seeded per well in a 96 well plate in 100 ul complete medium and incubated for 24 hours. Recombinant binding proteins or controls were added for an additional 72 hours. BrdU for cell labeling was added for the last 24 hours. Labeled (proliferating) cells were detected according to the manufactures protocol. The data were analyzed using the GraphPad prism software, plotting log [c] on the x-axis against OD450-602 nm on the y-axis. Data were fitted using a non-linear regression fit (log(antagonist) vs. response—Variable slope (four parameters)) deriving IC50 values. […]
Protein #21 and Protein #21-His were expressed and purified as described in Example 1. […] Briefly, effects on cell proliferation of Protein #21-His, other compounds, or Protein #21-His in combination with other compounds, were determined by measuring DNA synthesis using BrdU-labeling (BrdU, Cell Proliferation ELISA, Roche). […] Labeled (proliferating) cells were detected according to the manufactures protocol. The data were analyzed using the Graph Pad prism software (log [c] vs. OD450-602 nm plot). […]

BT474 cells [3] = experiment: Induction of apoptosis, Caspase 3/7 activation; type: cell-based, human; conditions: FIG. 7
Experimental: Induction of apoptosis by Protein #21 was determined by measuring Caspase3/7 activation using the Caspase 3/7-Glo systems (Promega, Switzerland). Briefly, 10000 BT474 cells were seeded per well in a 96 well plate in100 μl complete medium and incubated for 24 hours. Protein #21 and benchmarks were added for an additional 24 hours. Caspase Glo reagent was added according to the manufactures protocol for 1 hour. Caspase 3/7 activation was monitored by measuring luciferase activity. Alternatively induction of apoptosis was determined using the Cell Death Detection […] system (Roche, Switzerland). The assay was performed according to the manufactures protocol. Cell number and incubations times were similar to the Caspase Glo readout. Data were analyzed using the GraphPad prism software, plotting concentration on the x-axis against OD405/490 nm or relative light units (RLU; measured on a Tecan M-1000 reader) on the y-axis. Data were fitted using a non-linear regression fit (log(agonist) vs. response—Variable slope (four parameters)).

HER3 = experiment: Phosphorylation state ELISA, BT474 cells; type: cell-based, human; conditions: 100 nM, 18 hours
AKT [4] = experiment: Phospho-site specific ELISA, BT474 cells; type: cell-based, human; conditions: 100 nM, 18 hours
MDA-MB175 cells = experiment: MDA-MB175 cell proliferation, BrdU-labeling; type: cell-based; conditions: single agent or on top of suboptimal Protein #21-His (4 nM) or Protein #21 (10 nM)
Experimental: Protein #21 and Protein #21-His were expressed and purified as described in Example 1. Standard BrdU cell proliferation assays were performed, well-known to the person skilled in the art. Briefly, effects on cell proliferation of Protein #21-His, other compounds, or Protein #21-His in combination with other compounds, were determined by measuring DNA synthesis using BrdU-labeling (BrdU, Cell Proliferation ELISA, Roche). Briefly, 10000 cells were seeded per well in a 96 well plate in 100 μl complete medium and incubated for 24 hours. Protein #21-His and/or compounds were added for an additional 72 hours. BrdU for cell labeling was added for the last 24 hours. Labeled (proliferating) cells were detected according to the manufactures protocol. The data were analyzed using the Graph Pad prism software (log [c] vs. OD450-602 nm plot). Data were fitted using a non-linear regression fit (log(antagonist) vs. response—variable slope (four parameters)).

GXA3039 = experiment: Gastric cancer patient derived tumor xenograft mouse model GXA3039; type: in vivo; conditions: Protein #21 60 mg/kg, antibodies 10 mg/kg, every three days for 6 times
Experimental: Further, Protein #21 was expressed and purified as described in Example 1. […] All groups were dosed every three days for 6 times. Briefly, tumor fragments were obtained from xenografts in serial passage in nude mice. After removal from donor mice, tumors were cut into fragments (4-5 mm diameter) for subcutaneous implantation. Mice were randomized into groups when tumors reached a volume of approximately 100-120 mm^3. The day of randomization and treatment initiation is designated as day 0 in each experiment. Tumor growth was monitored by two-dimensional measurement with a caliper on the day of randomization and then twice weekly. Relative volumes of individual tumors (individual RTVs) for Day x were calculated by dividing the individual tumor volume on Day x (Tx) by the individual volume of the same tumor on Day 0 (TO) multiplied by 100%. Tumor inhibition for a particular day (T/C in %) was calculated from the ratio of the median RTV values of test versus control groups multiplied by 100%.

Foxo3a protein [5] = experiment: Cellular levels of Foxo3a protein in BT474 cells; type: cell-based, human; conditions: compared to an exposure to PBS only
Excerpt: as §1, §2

RAF = experiment: Phospho-proteome mass spectrometry of BT474 cells; type: cell-based, human; conditions: 100 nM, 18 hours
Excerpt: as §1

RPS6KB1/S6 Kinase = experiment: Phospho-proteome mass spectrometry of BT474 cells; type: cell-based, human; conditions: 100 nM, 18 hours
Excerpt: as §1

mTOR = experiment: Phospho-proteome mass spectrometry of BT474 cells; type: cell-based, human; conditions: 100 nM, 18 hours
Excerpt: as §1

AKT [6] = experiment: Phospho-proteome mass spectrometry of BT474 cells; type: cell-based, human; conditions: 100 nM, 18 hours
Excerpt: as §1

HER1/EGFR = experiment: Phosphorylation state ELISA, BT474 cells; type: cell-based, human; conditions: 100 nM, 18 hours

Substance: Trastuzumab
- increase of cellular levels of Foxo3a protein (Foxo3a protein [1]): 1.32 fold
- inhibition of BT474 cell proliferation, in words (BT474 cells [2]): only limited activity
- induction of apoptosis in BT474 cells (BT474 cells [3]): did not induce apoptosis
- HER3 Pan-Phospho-Tyrosine (HER3): 0.52 fold change to PBS
- AKT S473 phosphorylation (AKT [4]): 0.31 fold change to PBS
- inhibition of MDA-MB175 cell proliferation, in words (MDA-MB175 cells): only limited activity
- inhibition of tumor growth, first experiment (GXA3039; GXA3039, FIG. 4C): less efficacious
- inhibition of tumor growth, second experiment (GXA3039; GXA3039, FIG. 4D): significantly less efficacious
- increase of cellular levels of Foxo3a protein (Foxo3a protein [5]): 1.14 fold
- RAF S642 phosphorylation (RAF): 1.07 fold change to PBS
- RAF T631/T638/T640/T641/S642 phosphorylation (RAF): 0.77 fold change to PBS
- RPS6KB1/S6Kinase S441/T444/S447 phosphorylation (RPS6KB1/S6 Kinase): 0.88 fold change to PBS
- RPS6KB1/S6Kinase T444/S447 phosphorylation (RPS6KB1/S6 Kinase): 0.97 fold change to PBS
- mTOR S2448/S2454 phosphorylation (mTOR): 0.85 fold change to PBS
- AKT S124 phosphorylation (AKT [6]): 0.9 fold change to PBS
- AKT S129 phosphorylation (AKT [6]): 1.04 fold change to PBS
- HER1/EGFR Pan-Phospho-Tyrosine (HER1/EGFR): 0.53 fold change to PBS
